Experimental findings from US4604239A, “Antibiotics” (Eli Lilly and Company, priority 1985, dated 1986) are described below.

Common to all, as to type: cell-based
For assay [1], the system named is Staphylococcus aureus. The experiment in a line: agar-dilution MIC.
The subject of assay [2] is Peptostreptococcus anaerobius. The experiment in a line: agar-dilution MIC. Conditions: Ps. anaerobius 8; Table 15. How it is done:
The MIC values were determined by the agar-dilution method, and are recorded in Table 15, which follows.

The subject of assay [3] is Clostridium difficile. Conditions: Clostridium difficile A-280; Table 16. From the text:
The A41030 antibiotic factors A, B, C, D, E, F, and G, are also active against a number of strains of Clostridium difficile, as determined by the agar-dilution method.

[4] abbreviates: Staphylococcus aureus S13E, Table 17.

As to A41030 factor C, the MIC in assay [1] (setting [4]) and in assay [2] was 0.5 µg/mL in each case.

In the case of A41030 factor G, the MIC stood at 1.0 µg/mL in assay [3], 1 µg/mL in assay [1] (setting [4]) and 0.5 in assay [1] (in µg/mL).
